Reference: patent US20240360179A1, “STAPLED PEPTIDES AND METHODS THEREOF” (FOG PHARMACEUTICALS, INC., priority 2021, published 2024)

Protein sequences, listed by entry. Tags and fused reporters are not part of them.
full-length beta-catenin (Uniprot ID P35222) (human), UniProt P35222, whole entry: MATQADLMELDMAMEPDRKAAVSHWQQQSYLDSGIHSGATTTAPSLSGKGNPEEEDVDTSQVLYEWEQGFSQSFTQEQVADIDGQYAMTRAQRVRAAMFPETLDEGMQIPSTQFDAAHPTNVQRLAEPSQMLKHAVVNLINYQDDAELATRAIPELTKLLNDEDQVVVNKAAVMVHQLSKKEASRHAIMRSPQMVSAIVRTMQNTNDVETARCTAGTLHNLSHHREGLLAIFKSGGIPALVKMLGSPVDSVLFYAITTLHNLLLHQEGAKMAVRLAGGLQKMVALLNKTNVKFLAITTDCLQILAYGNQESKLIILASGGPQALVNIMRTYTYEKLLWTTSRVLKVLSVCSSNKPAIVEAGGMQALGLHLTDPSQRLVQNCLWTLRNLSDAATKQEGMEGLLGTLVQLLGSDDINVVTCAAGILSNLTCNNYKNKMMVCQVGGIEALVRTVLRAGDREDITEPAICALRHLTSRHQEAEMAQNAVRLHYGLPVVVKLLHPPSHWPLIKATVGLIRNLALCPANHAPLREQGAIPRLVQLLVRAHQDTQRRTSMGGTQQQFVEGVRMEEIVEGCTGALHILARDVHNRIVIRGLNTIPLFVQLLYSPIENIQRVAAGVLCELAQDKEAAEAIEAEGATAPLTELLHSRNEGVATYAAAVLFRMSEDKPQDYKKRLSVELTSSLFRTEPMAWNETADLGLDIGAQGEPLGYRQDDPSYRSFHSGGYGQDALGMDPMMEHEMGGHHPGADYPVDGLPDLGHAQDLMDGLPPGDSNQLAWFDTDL

Target: full-length beta-catenin (Uniprot ID P35222) (human)
Assay: competition fluorescence polarization; displacement of 5FAM-TCF4(10-53) from full-length beta-catenin

Row | IC50 | Substance
1 | 13 nM | C-1: Ac-PL3-Asp-Npg-B5-Asp-3COOHF-Ala-Ala-Phe-Leu-PyrS2-2F3MeF-BztA-Gln-NH2 (peptide)
2 | 42 nM | I-1365: Ac-PL3-Asp-Npg-B5-Asp-3COOHF-Aib-Ala-Phe-[m5Meb]Cys-PyrS2-3Thi-BztA-Cys-Ala-NH2 (peptide)
